# Compound activity from PubChem BioAssay.
# Giardia killer: Small Molecules that selectively kill Giardia lamblia: qHTS; Giardia lamblia trophozoite viability; activity change, % at 7.66 µM, hits read low; actives 0.15% (n = 340,000); in the data active = activity change below about -80%; inconclusive = between about -30% and that limit;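 note: parasites exposed to compound for two days anaerobically before the ATP read; % is set by controls: 0 for no effect and ±100 for the full control effect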
#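 Trophozoites 100 cells/well + cpd; 48 hrs, 37 deg C, anaerobic. ATPLite 1-Step added, 15-30 min RT, luminescence read (ATP-based viability).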
# Rango release inh: qHTS Assay for Inhibitors of RanGTP induced Rango (Ran-regulated importin-beta cargo) - Importin beta complex dissociation; Potency, µM (top dose mostly 46.1 µM), for the others: at the top dose activity change, negative = inhibition; AID 540253, 2011; actives 0.071% (n = 340,000); Biochemical FRET Rango-importin beta, RanGTP-induced dissociation; note: potency is the fitted concentration of half-maximal effect; % of control where 0% means no effect; nearly all actives have a fitted effect of over 45% in size
#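 Rango FRET biosensor (snurportin-1 IBB flanked by N-terminal EYFP and C-terminal CFP10) at 0.1 uM, with 0.25 uM importin beta in PBS, 1mM DTT, 0.02% Tween-20, 0.1% BSA. 0.6 uM Ran, 2mM GTP and 0.2 uM RCC1 were then added for 45 min at room temperature. Inhibition read as loss of FRET rise.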
# CCT chaperon mod: High-Throughput Screening for Modulators of Cytosolic Chaperonin Activity; purified chaperonin ATPase assay, HTRF ADP detection, 30 min; activity change, % (concentration not given with the values), hits read low; actives 0.3% (n = 360,000); in the data active = activity change below about -30%; note: % is set by controls: 0 for no effect and ±100 for the full control effect
#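 We incubate TRiC, 40 or 20 nM final, with library compounds at 76 uM and 10 uM ATP for 30 min at 37 °C. ADP formed is detected with Transcreener HTRF reagents after 30 min at room temperature.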
# Rango-impB inh: qHTS Assay for Inhibitors of Rango (Ran-regulated importin-beta cargo) - Importin beta complex formation | actives 0.031% (n = 340,000) | Importin subunit beta-1 (Homo sapiens), Q14974 | Rango CFP/YFP FRET sensor + importin beta, 45 min | AID 540263, 2011 | Potency, µM (doses to about 92.2 µM), inactives show top-dose inhibition of complex formation;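 note: potency is the fitted concentration of half-maximal effect; 0% = DMSO wells and 100% = buffer wells lacking importin beta; nearly all actives have a fitted effect of over 15% in size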
#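 Inhibition scored from the CFP 486 nm/YFP 530 nm FRET ratio 45 min after adding 0.125 microM importin beta to 50 nM Rango biosensor preincubated 5 min with compound (room temperature, PBS with DTT, Tween-20, BSA). No-importin wells as positive control.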
# Mm-Cpn inhibitor: Inhibitors of TCP-1 ring complex (TRiC) of Methanococcus maripaludis (MmCpn): qHTS | Chaperonin Mm-Cpn (Methanococcus maripaludis) | purified Mm-Cpn ATPase, ADP Transcreener TR-FRET | Potency, µM (doses to about 76.9 µM), without a hit: at the top dose activity, negative = inhibition, actives largely listed as inhibitors | actives 0.031% (n = 330,000) | AID 504842, 2011; active = well fitted inhibition curve with a large enough effect; inconclusive = small, poorly fitted or top-dose-only effect; note: potency is the fitted concentration of half-maximal effect; % is set by controls: 0 for no effect and ±100 for the full control effect; nearly all actives have a fitted effect of over 80% in size
#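 Compound-treated chaperonin, 25 nM final, turns over 10 uM ATP at 37°C for 30 min following a 10 min preincubation; ADP generated competes with ADP-d2 for Eu-cryptate antibody, lowering FRET.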
# The depositor's hits bear a star; ? = inconclusive; . = no result given; [ ] = remark or other dose. Only some compounds are listed: those with a hit (about 0.53% of all), similar ones and a draw of the others. Unless noted, calls come from the whole dose curve.
[1] C[C@@H]1CN([C@@H](C)CO)C(=O)c2cc(NC(=O)c3ccncc3)ccc2O[C@@H](C)CCCCO[C@@H]1CN(C)C(=O)Cc1ccccc1
[2] CC(C)NC(=O)Nc1ccc2c(c1)C(=O)N([C@H](C)CO)C[C@H](C)[C@@H](CN(C)C(=O)Nc1ccccc1)O2
[3] Cc1cc(C(=O)Nc2cccc3c2O[C@@H](CN(C)S(C)(=O)=O)[C@H](C)CN([C@@H](C)CO)C3=O)n(C)n1
[4] C[C@H](CO)N1C[C@H](C)[C@@H](CN(C)C(=O)Nc2ccc(C(F)(F)F)cc2)Oc2c(cccc2N(C)C)C1=O
[5] O=C(CI)Nc1cccc2cccnc12
[6] CC(C)C(NC(=O)c1ccccc1)C(=O)OCC(=O)N1CCCCC1 (configuration not stated)
[7] CC(C)C(NC(=O)c1ccccc1)C(=O)OCC(=O)N1CCN(c2ccccc2)CC1 (configuration not stated)
[8] COc1cccc2c1C(=O)c1c(O)c3c(c(O)c1C2=O)CC(O)(C(=O)CO)CC3OC1CC(N(C)C)C(O)C(C)O1 (configuration not stated)

Sequences of proteins named here, by UniProt entry; tags and fusion partners are left off.
Importin subunit beta-1 (Homo sapiens), Q14974, UniProt Q14974, whole entry, looked up: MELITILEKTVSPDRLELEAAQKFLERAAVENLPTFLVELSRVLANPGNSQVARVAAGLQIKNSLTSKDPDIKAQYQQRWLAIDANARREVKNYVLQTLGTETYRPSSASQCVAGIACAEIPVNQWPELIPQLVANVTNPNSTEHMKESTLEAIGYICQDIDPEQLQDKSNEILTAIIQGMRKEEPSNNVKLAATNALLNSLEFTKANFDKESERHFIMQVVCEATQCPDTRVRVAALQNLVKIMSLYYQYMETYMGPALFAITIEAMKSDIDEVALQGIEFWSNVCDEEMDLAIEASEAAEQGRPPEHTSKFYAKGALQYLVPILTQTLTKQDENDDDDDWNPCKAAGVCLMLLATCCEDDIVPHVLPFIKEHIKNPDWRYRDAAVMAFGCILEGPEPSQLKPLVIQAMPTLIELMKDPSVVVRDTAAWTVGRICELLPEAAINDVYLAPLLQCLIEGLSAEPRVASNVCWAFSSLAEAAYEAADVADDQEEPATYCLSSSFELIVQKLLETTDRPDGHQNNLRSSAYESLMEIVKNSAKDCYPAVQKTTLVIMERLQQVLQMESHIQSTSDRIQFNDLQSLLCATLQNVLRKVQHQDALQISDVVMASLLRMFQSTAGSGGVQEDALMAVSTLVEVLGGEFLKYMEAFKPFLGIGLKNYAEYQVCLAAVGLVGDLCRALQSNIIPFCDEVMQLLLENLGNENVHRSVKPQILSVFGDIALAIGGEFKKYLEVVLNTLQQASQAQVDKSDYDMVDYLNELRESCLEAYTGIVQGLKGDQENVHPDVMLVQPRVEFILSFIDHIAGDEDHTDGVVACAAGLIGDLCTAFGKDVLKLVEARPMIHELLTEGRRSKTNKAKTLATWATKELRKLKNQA

Compound,1,2,3,4,5,6,7,8
Giardia killer,.,-17,15,-29,-18,-3,5,-4
Rango release inh,.,13%,15%,18%,.,-1%,-1%,20%
CCT chaperon mod,-1,0,-32*,-3,.,-40*,4,-4
Rango-impB inh,.,3%,-3%,1%,.,0%,4%,58µM*
Mm-Cpn inhibitor,.,1%,-1%,4µM*,.,-1%,0%,.

# Some of the entries above in a different format.
[4] C[C@H](CO)N1C[C@H](C)[C@@H](CN(C)C(=O)Nc2ccc(C(F)(F)F)cc2)Oc2c(cccc2N(C)C)C1=O
  Giardia killer: -29 | Rango release inh: 18% | CCT chaperon mod: -3 | Rango-impB inh: 1% | Mm-Cpn inhibitor: 4µM*

[5] O=C(CI)Nc1cccc2cccnc12
  Giardia killer: -18 | Rango release inh: . | CCT chaperon mod: . | Rango-impB inh: . | Mm-Cpn inhibitor: .

[6] CC(C)C(NC(=O)c1ccccc1)C(=O)OCC(=O)N1CCCCC1 (configuration not stated)
  Giardia killer: -3 | Rango release inh: -1% | CCT chaperon mod: -40* | Rango-impB inh: 0% | Mm-Cpn inhibitor: -1%

# (list continues)
[9] COc1ccc(OCCCn2c(CCNC(=O)C3CCCCC3)nc3ccccc32)cc1
[10] COC(=O)C1=C(C)N(Cc2ccccc2)C(=S)N[C@H]1CCc1ccccc1
[11] Cc1ccc(CCC(=O)Nc2ccc(C#N)cc2)o1
[12] CCc1ccc(NC(=O)CCc2ccc(C)o2)cc1
[13] COc1ccc(Cl)cc1S(=O)(=O)NC(C)C(=O)NCc1ccncc1 (configuration not stated)
[14] NC(=O)CSc1nnc(Cc2csc(Nc3ccccc3)n2)n1Cc1ccccc1
[15] CCc1ccc(NS(=O)(=O)c2cc3c4c(c2)CCN4C(=O)CC3)cc1
[16] O=C1CCc2cc(S(=O)(=O)Nc3cccc(F)c3)cc3c2N1CC3

Compound,9,10,11,12,13,14,15,16
Giardia killer,-7,.,2,-4,-1,3,-15,22
Rango release inh,.,.,45%,-5%,-2%,-10%,-6%,-3%
CCT chaperon mod,.,.,-103*,0,-66*,-69*,-61*,3
Rango-impB inh,.,.,5%,2%,0%,-2%,5%,3%
Mm-Cpn inhibitor,.,-7%,3%,0%,0%,2%,1%,-4%

[17] CCOc1cccc(-c2nc(C(N)=O)c3[nH]c(=O)n(-c4cccc(Cl)c4)c3n2)c1O
[18] CCOC(=O)C1=C[C@@H](C(=O)OCC)[C@@H]2C3=C(C(=O)C2(C)C)[C@H](c2ccccc2)[C@@H]2C(=O)N(c4ccccc4)C(=O)[C@@H]2[C@@H]3C1
[19] O=C1CSC(=S)N1Nc1ccccc1
[20] CCCN1CNc2c(c(=O)[nH]c(=S)n2CCc2cc(OC)ccc2OC)C1
[21] O=C(NN1C(=O)c2ccccc2NC1c1ccc([N+](=O)[O-])o1)c1ccccc1 (configuration not stated)
[22] CCC1Sc2ccc(S(=O)(=O)Nc3ccc(OC)cc3)cc2NC1=O (configuration not stated)
[23] CCC1Sc2ccc(S(=O)(=O)Nc3ccc(OC)c(OC)c3)cc2NC1=O (configuration not stated)
[24] CCNc1nc(C#N)nc(NCC)n1

Compound,17,18,19,20,21,22,23,24
Giardia killer,-27,19,4,1,-85*,8,9,-14
Rango release inh,-1%,.,-11%,.,-11%,-10%,-4%,.
CCT chaperon mod,-37*,.,-34*,.,-5,-2,-35*,.
Rango-impB inh,4%,.,1%,.,-4%,2%,3%,.
Mm-Cpn inhibitor,-3%,.,.,.,1%,1%,2%,.

[25] O=C(COc1ccc(Cl)cc1)Nc1ncc([N+](=O)[O-])s1
[26] O=C(Cc1ccc(Cl)cc1)Nc1ncc([N+](=O)[O-])s1
[27] Cc1cnc(NC(=O)Cc2ccc(Br)cc2)s1
[28] O=C(Cc1ccc(Br)cc1)Nc1ncc([N+](=O)[O-])s1
[29] CC1(C)CC(=O)C2=C(C1)OC(N)=C(C#N)C2c1cc2c(cc1[N+](=O)[O-])OCO2 (configuration not stated)
[30] CCOc1cc(C2C(C#N)=C(N)OC3=C2C(=O)CC(C)(C)C3)cc([N+](=O)[O-])c1O (configuration not stated)
[31] C=C1CCN(C(CC(C)C)C(=O)Nc2ccc(OC)cc2)S(=O)(=O)c2ccccc21 (configuration not stated)
[32] CCN(CC)c1nc2ccccc2nc1-n1nc(C)cc1C

Compound,25,26,27,28,29,30,31,32
Giardia killer,-86*,-91*,-4,-93*,-5,-8,0,-13
Rango release inh,4%,-4%,-6%,?,16µM*,-3%,.,15µM*
CCT chaperon mod,-4,-1,0,-1,-3,-3,.,-2
Rango-impB inh,0%,-6%,5%,-6%,?,0%,.,?
Mm-Cpn inhibitor,2%,-20%,1%,-1%,-1%,1%,.,-5%

[33] O=C(NCc1ccc(F)cc1)c1cccc(S(=O)(=O)N2CCCC2)c1
[34] O=C(NCc1ccc(F)cc1)c1cccc(S(=O)(=O)N2CCOCC2)c1
[35] NS(=O)(=O)Nc1c(Br)cc(Br)c2cccnc12
[36] Cc1ccccc1NC(=O)/C=C/c1cccs1
[37] Cc1cc(C)cc(NC(=O)/C=C/c2ccc([N+](=O)[O-])s2)c1
[38] Cc1ccccc1NC(=O)/C=C/c1ccc([N+](=O)[O-])s1
[39] CC(=O)c1cccc(NC(=O)/C=C/c2ccc([N+](=O)[O-])s2)c1
[40] COc1ccc(-c2nn3c(-c4cc(-c5ccccc5)n[nH]4)nnc3s2)cc1OC

Compound,33,34,35,36,37,38,39,40
Giardia killer,8,-9,8,10,?,15,2,-18
Rango release inh,-14%,-2%,.,16%,1µM*,0.65µM*[inhibitor],?,.
CCT chaperon mod,-4,-2,.,-2,0,0,-2,.
Rango-impB inh,-3%,65µM*,.,-1%,?,?,?,.
Mm-Cpn inhibitor,3%,0%,.,-1%,-1%,-6%,2%,.

[41] Clc1ccc(Cn2c3c(c4ccccc42)CCc2cc4ccccc4nc2-3)cc1
[42] COc1ccc(Cn2nnnc2C(c2ccccc2)N2CCN(c3ccccc3)CC2)cc1 (configuration not stated)
[43] C/C=C1\COC(C(=O)NCc2cccc(OC)c2OC)(C(F)(F)F)C=C1C=C(C)C (configuration not stated)
[44] COc1ccc(C)cc1S(=O)(=O)n1c([N+](=O)[O-])cnc1C
[45] CCOC(=O)c1ccc(CN(Cc2ccccc2)S(=O)(=O)c2cccc([N+](=O)[O-])c2)cc1

Compound,41,42,43,44,45
Giardia killer,5,6,-20,-9,-16
Rango release inh,.,.,.,7%,8%
CCT chaperon mod,.,.,.,-79*,-33*
Rango-impB inh,.,.,.,?,-2%
Mm-Cpn inhibitor,.,.,.,-6%,0%
